These results are taken from publication PMC7603314, “Broad-complex transcription factor mediates opposing hormonal regulation of two phylogenetically distant arginine kinase genes in Tribolium castaneum” (Communications Biology, 2020).

Chains of the proteins cited; added tags and fusions are not shown. Residues count along the entry.
UniProt A0A2L1GIW2, 1-371: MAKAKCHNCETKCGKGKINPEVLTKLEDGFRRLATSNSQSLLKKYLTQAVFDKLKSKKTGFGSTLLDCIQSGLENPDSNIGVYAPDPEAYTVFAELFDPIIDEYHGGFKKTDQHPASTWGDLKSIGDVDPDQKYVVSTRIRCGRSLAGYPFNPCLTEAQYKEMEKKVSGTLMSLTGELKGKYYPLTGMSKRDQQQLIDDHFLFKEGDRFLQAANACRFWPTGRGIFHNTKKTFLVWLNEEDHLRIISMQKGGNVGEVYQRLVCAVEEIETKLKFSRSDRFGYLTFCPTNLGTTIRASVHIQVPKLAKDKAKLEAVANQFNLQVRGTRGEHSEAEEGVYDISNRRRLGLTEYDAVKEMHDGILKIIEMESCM
UniProt A0A2L1GIW8, 1-355: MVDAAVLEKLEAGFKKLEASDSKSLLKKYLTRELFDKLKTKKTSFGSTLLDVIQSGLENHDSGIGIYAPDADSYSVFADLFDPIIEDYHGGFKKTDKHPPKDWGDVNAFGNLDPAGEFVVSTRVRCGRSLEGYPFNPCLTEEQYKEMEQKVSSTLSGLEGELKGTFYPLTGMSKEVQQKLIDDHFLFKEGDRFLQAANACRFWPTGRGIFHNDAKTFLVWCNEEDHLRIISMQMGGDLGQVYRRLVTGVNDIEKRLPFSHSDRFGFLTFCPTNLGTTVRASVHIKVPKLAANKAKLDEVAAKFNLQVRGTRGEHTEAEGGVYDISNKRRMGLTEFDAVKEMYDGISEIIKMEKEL

For one assay, the target named is TcAK2 (Tribolium castaneum, UniProt A0A2L1GIW2). In words: coupled hexokinase / glucose-6-phosphate dehydrogenase assay, […] nm, Lineweaver-Burk. To be noted: read-out: Km^p-Arg; reverse reaction; 5 mM ADP, 20 mM MgCl2, 50 mM Tris-HCl pH 7.5, 30 °C; phospho-L-arginine varied 0.05-5 mM.
Another assay concerns the target TcAK1 (Tribolium castaneum, UniProt A0A2L1GIW8). The assay is described as above. The note with it: read-out: Km^p-Arg; reverse reaction; 5 mM ADP, 20 mM MgCl2, 50 mM Tris-HCl pH 7.5, 30 °C; phospho-L-arginine varied 0.05-5 mM (printed Km lies above this range).

`N=C(NCCC[C@H](N)C(=O)O)NP(=O)(O)O`: the results for the Km at TcAK2 and at TcAK1 were 1.4 mM and 14 mM, respectively.
